Laboratory results from patent US12023336B2, “Antiviral drug compounds and composition thereof” (priority 2018, dated 2024).

Key:
[1] = tested on: HIV-1NL4.3; settings: CEM-GFP, Jurkat J6, U937, hPBMCs
[2] = tested on: HIV-1NL4.3; settings: CEM-GFP cells

Compound | Therapeutic Index in T-cell lines, monocytic cell line and primary cells [1] | Therapeutic Index (TI) better than Methotrexate (MTX) ([2]; versus MTX) | TI (Therapeutic index = CC50/IC50) [2] | therapeutic index compared with MTX-HYD ([2]; HIV-1NL4.3)
CN(Cc1cnc2nc(N)nc(N)c2n1)c1ccc(C(=O)N[C@@H](CCC(=O)O)C(=O)O)cc1 [Methotrexate Hydrate] | significant Therapeutic Index | approximately 10 fold |  | 
[2H]C([2H])([2H])N(Cc1cnc2nc(N)nc(N)c2n1)c1ccc(C(=O)N[C@@H](CCC(=O)O)C(=O)O)cc1 [MTX-methyl-d3] |  |  | 1103.87 | higher therapeutic index than MTX-HYD
